One experiment concerns the target T1, human TREM-1-Fc (human, UniProt Q9NP99 21-205, limits assumed).
T1 construct: also called hTREM-1; not shown: Fc part
As to the kind of experiment: SPR kinetics (Example 1): anti-TREM-1 antibody captured on the chip, human TREM-1-Fc as analyte, 1:1 fit. The procedure:
Binding studies were performed on a ProteOn Analyzer (BioRad) that measures molecular interactions in real time through surface plasmon resonance. Experiments were run at 25° C. and the samples were stored at 15° C. in the sample compartment. The signal (RU, response units) reported by the ProteOn is directly correlated to the mass on the individual sensor chip surfaces in the six parallel flow cells. Anti-human Fe monoclonal or anti-murine Fc polyclonal antibody from Biacore human or mouse Fc capture kits were immobilized in horizontal direction onto flow cells of a GLM sensor chip according to the manufacturer's instructions. The final immobilization level of capture antibody was approximately 2600-6000 RU in each experiment. The capture of purified monoclonal mouse or recombinantly expressed anti-hTREM-1 antibodies was conducted by diluting the antibodies to 5-10 nM into running buffer (10 mM Hepes 0.15 M NaCl, 5 mM EDTA, 0.05% surfactant P20, pH 7.4) followed by injection in vertical direction at 30 l/min for 60 see, creating reference interspots adjacent to all flow cells with only anti-Fc antibody immobilized. […] Binding of hTREM-1 or cTREM-1 proteins was conducted by injecting analyte (antigen) over all flow cells in horizontal direction to allow for comparative analyses of binding to different captured anti-TREM-1 antibodies relative to binding to the reference interspot. hTREM-1 or cTREM-1 proteins were diluted serially 1:3 to 1.2-100 nM or into running buffer, injected at 100 l/min for 250 s and allowed to dissociate for 600s. The GLM surface was regenerated after each injection cycle of analyte via two 18 s injections of 10 mM Glycine, pH 1.7 and 50 mM NaOH at 100 l/min. This regeneration step removed the anti-TREM-1 antibody and any bound TREM-1 protein from the immobilized capture antibody surface and allowed for the subsequent binding of the next interaction sample pair.

Protein sequences, listed by entry. Tags and fused reporters are not part of them. Residues count along the entry.
UniProt Q9NP99, 21-205 limits assumed: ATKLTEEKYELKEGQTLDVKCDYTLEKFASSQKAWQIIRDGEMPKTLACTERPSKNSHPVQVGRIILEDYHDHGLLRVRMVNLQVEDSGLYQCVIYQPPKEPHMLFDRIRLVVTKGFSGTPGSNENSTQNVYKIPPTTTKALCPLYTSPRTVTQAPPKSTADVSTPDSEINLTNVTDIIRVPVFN
UniProt Q9NP99, 21-234 limits assumed: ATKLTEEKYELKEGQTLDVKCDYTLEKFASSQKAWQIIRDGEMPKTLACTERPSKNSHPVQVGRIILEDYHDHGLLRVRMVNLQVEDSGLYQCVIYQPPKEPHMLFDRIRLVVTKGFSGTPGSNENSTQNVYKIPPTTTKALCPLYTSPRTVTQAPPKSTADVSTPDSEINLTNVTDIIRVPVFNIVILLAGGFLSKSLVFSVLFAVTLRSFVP

The target in experiment [1] is T2, cynomolgus TREM-1 on cells (cynomolgus).
T2 construct: Endogenous receptor in dosed monkeys; also called TREM-1 receptors on peripheral blood monocytes and granulocytes of cynomolgus monkeys
T2 chain: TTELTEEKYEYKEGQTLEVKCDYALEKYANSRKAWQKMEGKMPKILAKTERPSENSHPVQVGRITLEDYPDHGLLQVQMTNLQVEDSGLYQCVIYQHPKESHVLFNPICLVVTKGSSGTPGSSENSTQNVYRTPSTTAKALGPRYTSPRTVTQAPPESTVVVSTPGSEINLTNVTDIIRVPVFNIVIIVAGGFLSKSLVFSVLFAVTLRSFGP
As to the kind of experiment: estimate of the 2-compartment PK model with TMDD fitted to cynomolgus PK/RO/PD data (mAb off-rate from TREM-1). The text has this:
Monkey PK, RO, total receptor levels, and PD data were described using a 2-compartment PK model with saturable target-mediated drug disposition (TMDD) in the central compartment to accommodate for the observed non-linear PK (see Example 12 and FIG. 13). A direct-effect inhibitory model was used to describe the PD response. This model was able to effectively capture the time course of PK/RO/PD observed in the monkeys. The observed (open circle) and model-predicted endpoints (solid line) are provided in FIGS. 16A (0.1 mg/kg subcutaneous dosing) and 16B (10 mg/kg subcutaneous dosing).

Experiment [2] concerns the target T3, human TREM-1 on cells (human, UniProt Q9NP99 21-234). As to the kind of experiment: cell-based or functional assay.
Experiment [3] has as its target T3, human TREM-1 on cells. As to the kind of experiment: cell-based or functional assay. This is another data set of the same source.
Experiment [4] addresses T4, huTREM1 (as named in Table 3) (human, UniProt Q9NP99 21-205, limits assumed).
T4 construct: also called human TREM-1
As to the kind of experiment: SPR (Biacore).

For experiment [5], the target named is T5, CynoTREM1 (as named in Table 3) (cynomolgus).
T5 construct: also called cynomolgus TREM-1
T5 chain: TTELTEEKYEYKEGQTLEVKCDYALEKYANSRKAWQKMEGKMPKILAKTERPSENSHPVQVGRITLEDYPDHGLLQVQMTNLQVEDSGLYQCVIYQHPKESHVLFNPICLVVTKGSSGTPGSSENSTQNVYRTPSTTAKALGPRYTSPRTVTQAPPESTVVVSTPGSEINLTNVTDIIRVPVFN
As to the kind of experiment: SPR (Biacore).

Here are results for 5 molecules from patent US20260217824A1 (Bristol-Myers Squibb, published 2026).

Values joined by “and” are separate entries in the source; they are usually repeats but may differ in a detail not shown here. Equal values may be shown once.

B1: mAb 0318-IgG1-Aba (antibody)
heavy: not shown
light: DIVLTQSPDSLAVSLGERATINCRASQSVDTFDYSFLHWYQQKPGQPPKLLIYRASNLESGVPDRFSGSGSGTDFTLTISSLQAEDVAVYYCQQSNQDPYTFGQGTKLEIKRTVAAPSVFIFPPSDEQLKSGTASVVCLLNNFYPREAKVQWKVDNALQSGNSQESVTEQDSKDSTYSLSSTLTLSKADYEKHKVYACEVTHQGLSSPVTKSFNRGEC
notes: IgG1 constant region with K214R, C226S, C229S, P238S (EU); also called IgG1-Aba mod; FcAba-1
In the experiment with human TREM-1-Fc, B1 displayed an equilibrium dissociation constant (Kd) of 0.899 nM, an off-rate constant (koff) of 0.00145 s⁻¹ and an on-rate constant (kon) of 1.62e+06 M⁻¹ s⁻¹.

B2: mAb 0318-IgG1.1f (antibody)
heavy: EVQLVESGGGLVQPGGSLKLSCAASGFTFSTYAMHWVRQASGKGLEWVGRIRTKSSNYATYYAASVKGRFTISRDDSKNTAYLQMNSLKTEDTAVYYCTRDMGIRRQFAYWGQGTLVTVSSASTKGPSVFPLAPSSKSTSGGTAALGCLVKDYFPEPVTVSWNSGALTSGVHTFPAVLQSSGLYSLSSVVTVPSSSLGTQTYICNVNHKPSNTKVDKRVEPKSCDKTHTCPPCPAPEAEGAPSVFLFPPKPKDTLMISRTPEVTCVVVDVSHEDPEVKFNWYVDGVEVHNAKTKPREEQYNSTYRVVSVLTVLHQDWLNGKEYKCKVSNKALPSSIEKTISKAKGQPREPQVYTLPPSREEMTKNQVSLTCLVKGFYPSDIAVEWESNGQPENNYKTTPPVLDSDGSFFLYSKLTVDKSRWQQGNVFSCSVMHEALHNHYTQKSLSLSPG
light: B1 light
notes: IgG1 constant region with L234A, L235E, G237A, A330S, P331S (EU)
For B2, in the experiment with human TREM-1-Fc, the dissociation constant Kd was 0.866 nM, the dissociation rate constant (koff) amounted to 0.00142 s⁻¹ and the kon was found to be 1.64e+06 M⁻¹ s⁻¹.

B3: mAb 0318 (IgG4) (antibody)
VH: not shown
VL: B1 light
notes: the rest is said to be IgG4
On to B3, for which, in the experiment with human TREM-1-Fc, the dissociation constant (Kd) was 1.01 nM and 0.98 nM; the koff came out at 0.00143 s⁻¹; the kon was 1.42e+06 M⁻¹ s⁻¹ and 1.46e+06 M⁻¹ s⁻¹.

B4: mAb 0318-IgG4-Aba (antibody)
heavy: not shown
light: B1 light
notes: IgG4 CH1 with IgG1 CH2 and CH3, C226S, C229S, P238S (EU); also called IgG4-Aba mod; FcAba-4
In the experiment with human TREM-1-Fc, B4 registered an equilibrium dissociation constant (Kd) of 0.889 nM, a koff of 0.00151 s⁻¹ and an on-rate constant (kon) of 1.7e+06 M⁻¹ s⁻¹.

B5: mAb 0318-IgG1.3f (antibody)
heavy: EVQLVESGGGLVQPGGSLKLSCAASGFTFSTYAMHWVRQASGKGLEWVGRIRTKSSNYATYYAASVKGRFTISRDDSKNTAYLQMNSLKTEDTAVYYCTRDMGIRRQFAYWGQGTLVTVSSASTKGPSVFPLAPSSKSTSGGTAALGCLVKDYFPEPVTVSWNSGALTSGVHTFPAVLQSSGLYSLSSVVTVPSSSLGTQTYICNVNHKPSNTKVDKRVEPKSCDKTHTCPPCPAPEAEGAPSVFLFPPKPKDTLMISRTPEVTCVVVDVSHEDPEVKFNWYVDGVEVHNAKTKPREEQYNSTYRVVSVLTVLHQDWLNGKEYKCKVSNKALPAPIEKTISKAKGQPREPQVYTLPPSREEMTKNQVSLTCLVKGFYPSDIAVEWESNGQPENNYKTTPPVLDSDGSFFLYSKLTVDKSRWQQGNVFSCSVMHEALHNHYTQKSLSLSPGK
light: B1 light
notes: IgG1 constant region with L234A, L235E, G237A (EU)
For B5, in the experiment with human TREM-1-Fc, binding was put at a Kd of 0.85 nM, the koff worked out at 0.0014 s⁻¹ and the kon stood at 1.65e+06 M⁻¹ s⁻¹. Further, the koff in experiment [1] is 0.000103 s⁻¹. Also, in the experiment with human TREM-1 on cells [2], the “IC50 of IL-6 production, primary human cells stimulated with plate-bound PGRP1 and PGN-ECndss” value was roughly 0.032 nM; the “IC50 of IL-8 production, stimulated whole blood, HTRF” value amounted to 0.012 nM; the “IC50 of IL-8 production, stimulated whole blood, intracellular cytokine staining (ICS)” value came out at 0.0196 nM. Besides, in the experiment with human TREM-1 on cells [3], the “IC50 (pM), CHI3L1 RNA, whole blood, Soluble PGRP + Soluble PGN-Ecndss” value is 4.58 pM; the “IC50 (pM), IL1b RNA, whole blood, Soluble PGRP + Soluble PGN-Ecndss” value is 11.2 pM; the “IC50 (pM), IL6 RNA, whole blood, Soluble PGRP + Soluble PGN-Ecndss” value was 97.7 pM. In experiment [4], this molecule gave an equilibrium dissociation constant (Kd) of 0.91 nM, an off-rate constant (koff) of 0.0013 s⁻¹ and an on-rate constant (kon) of 1.4e+06 M⁻¹ s⁻¹. In experiment [5], this molecule yielded a koff of 0.0014 s⁻¹ and a kon of 400000 M⁻¹ s⁻¹.
